Assay results published in article PMC3812274 (Biochemistry, 2013).

Target: N-terminal SNARE motif of human SNAP-25B ([…]) (human)
Assay: assembly of an SDS-resistant complex

binding result: binds
B1: C-terminal SNARE motif of human SNAP-25B (residues 141-203) (domain or fragment, UniProt P60880-1 141-203, looked up)
chain: ARENEMDENLEQVSGIIGNLRHMALDMGNEIDTQNRQIDRIMEKADSNKTRIDEANQRATKML
